Source: US20170260285A1, “METHODS FOR TREATING CANCER” (UNIVERSITY OF IOWA RESEARCH FOUNDATION, priority 2014, published 2017)

Legend:
HNSCC tumor cell lines = settings: previous studies (ref. 10); cited from earlier work
SQ20B xenograft tumors = test: HNSCC xenograft tumor growth in nude mice; type: in vivo, athymic nu/nu mice; settings: EGFRI combined with IL-1α blockade (neutralizing IL-1α antibody)
Procedure: Clonogenic survival was determined as previously described (17). Individual assays were performed with multiple dilutions with at least four cloning dishes per data point, repeated in at least 3 separate experiments. Tumor cell implantation: Female 4-5 week old athymic-nu/nu nude mice were purchased from Harlan Laboratories (Indianapolis, IN). Mice were housed in a pathogen-free barrier room in the Animal Care Facility at the University of Iowa and handled using aseptic procedures. All procedures were approved by the IACUC committee of the University of Iowa and conformed to the guidelines established by the NIH. […]
(§1) Mice started drug treatment 1 week after tumor inoculation. […] Mice were evaluated daily and tumor measurements taken three times per week using Vernier calipers. Tumor volumes were calculated using the formula: tumor volume=(length×width^2)/2 where the length was the longest dimension, and width was the dimension perpendicular to length. […]
as §1

cetuximab
IL-6 expression/secretion in HNSCC cell lines treated with EGFRIs (HNSCC tumor cell lines): significant upregulation | anti-tumor activity in vivo with IL-1α blockade (SQ20B xenograft tumors): significantly increased
